We go through two molecules from patent EP4843989A1, “POLYCYCLIC COMPOUND, PHARMACEUTICAL COMPOSITION THEREOF, AND USE THEREOF” (dated 2026).

The chains behind the UniProt entries cited, without tags or fusion partners.
UniProt Q13546, whole entry: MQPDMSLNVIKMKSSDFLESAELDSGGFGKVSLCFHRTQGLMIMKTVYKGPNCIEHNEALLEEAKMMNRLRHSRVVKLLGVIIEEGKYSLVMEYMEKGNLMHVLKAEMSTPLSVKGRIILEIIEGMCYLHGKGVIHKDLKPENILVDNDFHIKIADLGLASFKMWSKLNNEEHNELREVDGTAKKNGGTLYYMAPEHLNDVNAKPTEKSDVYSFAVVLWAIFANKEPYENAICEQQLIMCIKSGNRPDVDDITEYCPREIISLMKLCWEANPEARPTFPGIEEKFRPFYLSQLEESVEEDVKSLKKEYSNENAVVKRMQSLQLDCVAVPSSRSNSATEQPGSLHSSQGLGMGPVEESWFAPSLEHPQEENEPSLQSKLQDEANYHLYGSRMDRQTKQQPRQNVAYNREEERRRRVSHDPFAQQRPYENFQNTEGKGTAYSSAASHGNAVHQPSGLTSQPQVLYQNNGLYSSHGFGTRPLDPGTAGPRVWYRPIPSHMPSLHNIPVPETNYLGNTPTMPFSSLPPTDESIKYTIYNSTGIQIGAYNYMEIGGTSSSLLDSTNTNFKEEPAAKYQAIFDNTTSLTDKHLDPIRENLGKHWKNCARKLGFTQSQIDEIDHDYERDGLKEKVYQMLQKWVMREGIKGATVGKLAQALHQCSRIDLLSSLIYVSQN

In assay [1] the test system is L929 cells. The assay is described as follows: TNFα-induced L929 cell death recovery, CTG readout (Testing Example 1). As to conditions: read-out: TNFα+Z L929-CTG-recoveny IC50, method: 10 ng/mL TNFα and 40 nM SM-164, 24 hours.
In assay [2] the test system is U937 cells. Put plainly: TNFα-induced U937 cell death recovery, CTG readout (Testing Example 1). The following applies: read-out: TNFα+Z U937-CTG-recoveny IC50, 100 ng/mL TNFα and 25 µM Z-VAD, 24 hours.
The target of assay [3] is human Ripk1 (Homo sapiens, UniProt Q13546). Put plainly: Promega ADP-Glo kinase assay of Ripk1 enzymatic activity (Testing Example 2). As to conditions: read-out: ADP GLO IC50; human Ripk1 1.25 ng/µL, substrate MBP, ATP 12.5 µM, 3 hours at room temperature.

Consider `CN1C(=O)[C@@H](NC(=O)c2n[nH]c(Cc3ccccc3)n2)COc2ccccc21`, for which the IC50 in assay [1] was found to be 2000 nM; in assay [2] it was 3 nM.
With `CN1C(=O)[C@@H](N2CCc3c(nn4c3CC[C@H]4c3ccccc3)C2=O)COc2ccc(C#CC3CC3)cc21`, the IC50 was 7 nM in assay [1] and 130 nM in assay [3].
